Measurements: ChEMBL document CHEMBL1135050, “Design and synthesis of 4,5-disubstituted-thiophene-2-amidines as potent urokinase inhibitors” (Bioorg Med Chem Lett, 2002)

molecular target: Urokinase-type plasminogen activator (Homo sapiens, UniProt P00749); experiment: Inhibition of Human kidney cell urokinase; assay type: cell-based

Structure (SMILES) | Ki [nM]
CSc1sc(C(=N)N)cc1-c1nc(-c2ccccc2)cs1 | 101
COc1ccc(-c2csc(-c3cc(C(=N)N)sc3C)n2)cc1OC | 169
C[S+]([O-])c1sc(C(=N)N)cc1-c1nc(-c2ccc(Cl)cc2)cs1 (stereo not drawn) | 1420
